# Ab-14 light chain CDR variants: yeast mating affinities

Data: MIT Lincoln Laboratory AlphaSeq set, Li et al. 2023, doi:10.1038/s41467-023-39022-2, as distributed in FLAb.

Binding partner: SARS-CoV-2 spike HR2 peptide, sequence PDVDLGDISGINAS.

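The starting antibody came from a phage panning campaign against this peptide. Designed CDR sequences, proposed from the first random library and measured here. Several design methods are mixed in this list. Affinity was read by AlphaSeq, a pooled yeast mating assay with surface-displayed partners. Pairs that bind mate more often; barcode pairs of the diploids are counted by sequencing. Scores were corrected for input abundance and mapped to Kd with protein pairs of known affinity run in the same pool. Each pool was mated in six replicate cultures.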

Ab-14 is the parent antibody, in scFv form: VH, then three GGGGS repeats, then VL. The heavy chain is unchanged in all variants.
VH: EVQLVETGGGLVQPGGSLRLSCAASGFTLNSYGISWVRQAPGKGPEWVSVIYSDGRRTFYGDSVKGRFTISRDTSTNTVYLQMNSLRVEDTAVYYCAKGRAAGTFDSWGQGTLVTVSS
VL: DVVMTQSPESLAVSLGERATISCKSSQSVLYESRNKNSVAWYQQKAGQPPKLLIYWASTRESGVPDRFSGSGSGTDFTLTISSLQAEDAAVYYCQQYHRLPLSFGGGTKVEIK

Variants are written as CDR1, CDR2 and CDR3 of the light chain (limits as in the source). Parent: KSSQSVLYESRNKNSVA, WASTRES, QQYHRLPLS. The Kd shown is the geometric mean over detected replicates; a lower Kd is a better binder. An entry "no signal" has no value in the source: the pair was not observed among the diploids in any replicate. This suggests poor binding but is not conclusive.

| CDR-L1 | CDR-L2 | CDR-L3 | Kd (apparent) | seen in |
|---|---|---|---|---|
| KIMQMLNYSQFNVSNVA | GQETRER | QSYHRLPLS | 100 nM | 3/6 |
| ILSQSVLGGYHNKNSVA | QTSERGQ | QQYDRLPLS | 4.2 nM | 6/6 |
| KSSWSWLYEDRVKNSVA | GASTRES | QQYHRLPLS | 2.3 nM | 6/6 |
| KWSQSVKFESRNKNSVA | DASTRES | QQYHRLPLS | 1.7 nM | 6/6 |
| KSSPSLLYESENKNAVA | WASTRES | QQYHRLPLS | 17 nM | 6/6 |
| KLSPSWWYESRNKASVA | HASTRES | QQYHRLPLS | 2.8 nM | 6/6 |
| KSSQSVAMESRNDNSVA | DASTRES | QQYHRLPLS | 1.2 nM | 6/6 |
| TISQVMNTLTRNTNNVA | DLTERTK | QQYFRLPLS | 1.6 nM | 6/6 |
| KHSQSVLYEYRNKNSVA | EASTRES | QQYARLPLS | 3.1 nM | 28/30 |
| KLLQSVLYESRNKNSVA | NASTRED | QQYHQLPLS | 2.2 nM | 6/6 |
| KQSQSVLYETRNKNSVA | DASTRES | QQYHRLPLS | 780 pM | 6/6 |
| KFGQMVLTGTYVKNSVA | QSSTREN | QQYHRLPLS | 40 nM | 5/6 |
| KLSSHEQHGTAQNSAMA | NATVSTQ | QQYSHLPLS | 8.7 nM | 6/6 |
| KFSQSVLYESRTSNRVA | NASTRES | QQYHRLPLS | 3.2 nM | 6/6 |
| KYSNSVQYESRNANSVA | WASTRES | QQYHRLPLS | 57 nM | 6/6 |
| KSSQPVLIESRNKNSVA | WASTRES | QQYHRLPLS | 130 nM | 5/6 |
| HSSPSVEYESRNKNSVA | NASTRES | QQYHRLPLS | 600 pM | 6/6 |
| KISQSVLYESDNKNSVA | EASTRES | QQYHVLPLS | 9.3 nM | 6/6 |
| KLTMMYQHTSMNKNNIA | ERSTREE | QQYHHLPLS | 11 nM | 6/6 |
| KSLQSVDYESRNFNSVA | HASTRED | QQYHRLPLS | 4.2 nM | 6/6 |
| HSSPSVLYESRNKNSVA | QASTRES | QQYHRLPLS | 3.0 nM | 6/6 |
| KLRMSTAYLTENKNSVA | ELTTRGN | QQYFRLPLS | 2.4 nM | 6/6 |
| LSSQSWLYESRNKNSVA | WASTRES | QQYHRLPLS | 52 nM | 1/6 |
| SLDSYVGYDTHNKKNIA | EETRVDR | QQYAHLPLM | 5.8 nM | 6/6 |
| KLSQSVNMTGKNKNSVA | ELSFREK | QQYERLPLS | 45 nM | 6/6 |
| KLMQGDEMESRNKNSVA | NASKREE | QQYHRLPLS | 610 pM | 6/6 |
| NSSQSVLEESRNKNSVA | QAETRSS | QQYHRLPLS | 3.7 nM | 6/6 |
| KIELGLTRYNNGYSAIA | NETQKAN | QQYSRLPLV | 3.7 nM | 6/6 |
| MIEEGNAGEQKNSSNIA | SQDQKED | QQYQRLPLI | 59 nM | 6/6 |
| KLQNSQEYESRMKNSVA | NASQRED | QQYHRLPLS | 880 pM | 6/6 |

Further variants, results first:

| Kd (apparent) | seen in | CDR-L1 | CDR-L2 | CDR-L3 |
|---|---|---|---|---|
| no signal | 0/6 | KSSQSVPYESRNKNSVA | WASTRES | QSYHRLILS |
| 260 nM | 3/6 | TLSQMSGVESVKHNSVA | ENSTREK | QQYDRLPLT |
| 6.2 nM | 6/6 | KSSQSVMYESRLTNSVA | HASTRET | QQYIRLPLS |
| 350 nM | 5/6 | TIGGTLMYGVMNRSNVA | EVSERLN | QQYDRLPLM |
| 1.2 nM | 6/6 | KLQPSWLYEERNDNSVA | QASQRES | QDYHRLPLS |
| 110 nM | 6/6 | QISMLLNFELKIGNNVA | QMETRVN | QQYDRLPLS |
| 6.0 nM | 6/6 | KLPLATMQESVSKNNVA | ELSTRGN | QQYHRLPLS |
| 800 pM | 6/6 | KVSQSDLYESRNKNSVA | HASTRES | QQYHRLPLS |
| 4.9 nM | 6/6 | TIGQMFNGESRNRNSVA | QASTREY | QSYDRLPLS |
| 29 nM | 6/6 | KVEQGVDDLERNDNSVA | WASTRES | QQYHRLPLS |
| 4.4 nM | 6/6 | KSSQSVLYEGRNKNSVA | SASTRES | QQYHRLPLS |
| 16 nM | 6/6 | IMTGIIEWGSNNKNNIA | ENKERFQ | QQYWQLPLS |
| 8.3 nM | 6/6 | KISQMVTYESTWHNAIA | QVSEREE | QQYHRLPLS |
| 7.9 nM | 6/6 | KLSQSALYESRNKNSVA | GASTRES | QQYHRLPLS |
| 1.2 nM | 6/6 | KSSGSYLYESRNTNSVA | EASTRES | QQYHRLPLS |
| 4.2 nM | 6/6 | VMNITLQVGEQMNANVA | NAIQRFQ | QQYARLPLT |
| 48 nM | 6/6 | NFRQMVLYGSTLKNSVA | HASTREE | QQYHRLPLI |
| 6.5 nM | 6/6 | MVTQMAMTGMMTKRSVA | NATTREE | QQYHRLPLI |
| 450 nM | 2/6 | KDSQSALRESHNKNSVA | WASTRES | QQYHRLPLS |
| 6.5 nM | 6/6 | KCSQSVKFESRNKNSVA | DASTRES | QQYHRLPLS |
| 710 pM | 6/6 | QIYQAMHTLSQVKNNVA | DVNERGS | QQYFRLPLS |
| 580 pM | 6/6 | KLSASQLYQSRNSNAVA | NASTRMM | QQYHRLPLS |
| 420 pM | 6/6 | KLQQSVLYESRNKNSVA | NASTRME | QQYHRLPLS |
| 440 pM | 6/6 | KLVQSVLYESRNKNSVA | DASTRES | QQYHRLPLS |
| 2.4 nM | 6/6 | YAQMPFHEVGKDEQNIA | NATIRES | QQYFRLPIL |
| 620 nM | 2/6 | IVSQLMIWGMHLKNSIA | EAQTRLN | QQYDRLPLM |
| 2.8 nM | 6/6 | KLRQSTLYESRNKNSVA | NASTRLS | QQYHRLPLS |
| 28 nM | 6/6 | KLSQSELYEERNDNSVA | SASQRES | QDYHRLPLS |
| 1.4 nM | 6/6 | KVSQSWLYESRNKNSVA | NASQRES | QDYHRLPLS |
| no signal | 0/6 | KSSQSVLYESHWKNSVA | WASTRES | QQYHRWPLS |
| 3.2 nM | 6/6 | KVSQSQLYEWRNMNSVA | NASTREM | QQYHRLPLV |

A sequence that the file lists under several names has all its replicates pooled. Values of this round are not directly comparable with the first-round values of the same sequences. The parent sequence was in this pool as ten entries: three were never detected, three once, and four in most replicates, with averages from 2.2 nM to 240 nM. Empty control strains, which show no peptide, gave a signal in 4% of pairings with all light chain designs; the median was 430 nM and 95% of these signals were weaker than 38 nM. No background was subtracted. In the paper, a design with two or fewer of six values counts as a poor binder.